Earlier results in patent US20260085262A1, “ACQ FLUORESCENCE PROBE COMPOSITION, CMC DETERMINATION METHOD, STAIN CLEANING CONCENTRATION DETERMINATION METHOD, DETERGENT DISPENSING CONTROL METHOD, AND DETERGENT DISPENSING CONTROL SYSTEM” (GUANGZHOU BLUEMOON INDUSTRIAL CO., LTD., priority 2024, published 2026).

Settings: solvent; cited from earlier work

Question: For n-Butanol, which Flash point is on record?
Answer: 37 °C

Question: What about the Viscosity of the same substance?
Answer: 2.95 mPa · s
